Screens from PubChem.
The list is not random: actives were taken first. Their share in the collection is about 2.8%.
C2C12 statin = suppression of simvastatin myotoxicity. 0.78% of 330,000 active. AID 602340. C2C12 myotubes + simvastatin, ATP luminescence, 48 h; scaled: DMSO 0, geranylgeraniol control 100. rescue of ATP level, % at 7.49 µM;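 active means mean ATP rescue above about 67%, or every replicate alone reaching that limit, limit read from the data, passing the limit was not always enough; inconclusive means no clear call, values can overlap the other calls; inactive means mean under the limit and some replicate under it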;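 further: myotubes were challenged with 10 µM simvastatin during compound exposure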
esBAF inh = inhibitors of esBAF chromatin remodeling in mouse ES cells; Bmi1-luciferase knock-in reporter, 24 h; 100% = twice the neutral-well signal; reporter increase, % at 12.5 µM; 2% of 350,000 active; AID 602393; in the data active means activation above about 40%; inconclusive means no clear call, values can overlap the other calls;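 further: a rise in the Bmi1 reporter signal indicates esBAF inhibition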
E-sel inducer = E-selectin induction on HUVECs | HUVEC E-selectin immunofluorescence imaging; normalized: neutral wells 0, TNF-alpha wells 100 | activation, % at 7.58 µM | 0.37% of 260,000 active | AID 686992;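 active means mean E-selectin-positive cell signal at least 10% of the positive control, reached in at least 60% of replicates, without over 20% cell loss; inconclusive means no rule given, readout overlaps actives, possibly toxicity-flagged; inactive means the rest, including those meeting only one limit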
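System: HUVEC, human umbilical vein endothelial cells; quantity: 3,000 cells/well; buffer or medium: EGM-2 medium, gelatin-coated wells; dosing: single-point compound dose; detection: immunofluorescence imaging; evaluation: % PE-positive cells; benchmarks: TNF-alpha, DMSO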
PGC1a acetyl inh = modulators of PGC1a acetylation | inhibition, % at 15.6 µM | 0.17% of 350,000 active | U2OS PGC1a acetylation, AlphaScreen anti-acetyl-lysine; with virally co-expressed GCN5 acetyltransferase;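 active means every replicate shows inhibition of at least 40%; inconclusive means mean inhibition at least 40% but some replicate below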
UUG fidelity = yeast start codon fidelity modulation; AID 602363; activity score, % at 18.7 µM; S. cerevisiae UUG-firefly luciferase reporter, luminescence/redox ratio; 0.13% of 350,000 active;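 active means replicate mean at a twofold rise or more, about +100% in these data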;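 further: firefly luciferase made from a UUG start codon reports start codon fidelity; reporter light over untreated wells divided by growth signal over untreated wells; some hits fall short of that in this replicate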
PglD inh = inhibitors of Campylobacter jejuni PglD acetyltransferase; 0.098% of 360,000 active; purified PglD enzyme, DTNB colorimetric CoA detection; inhibition, % at 12.5 µM; in the data active means inhibition above about 16%, passing the limit was not always enough; inconclusive means no clear call, values can overlap the other calls
Large screens that a line does not name were inactive.

CC(=O)c1cccc(OCc2cc(C(=O)N3CC4C[C@@H]5CC3C[C@H](C4)C5)no2)c1	none (no result: E-sel inducer, PGC1a acetyl inh)
COc1ccccc1OCc1cc(C(=O)N2CC3C[C@@H]4CC2C[C@H](C3)C4)no1	esBAF inh 63.3 (no result: E-sel inducer, PGC1a acetyl inh)
O=C(c1cc(COc2c(F)cccc2F)on1)N1CCC(c2ccccc2Cl)C1 (stereo not drawn)	esBAF inh 45.0 (no result: UUG fidelity, PglD inh)
O=C(c1cc(COc2c(F)cccc2F)on1)N1CCC(c2ccccc2F)C1 (stereo not drawn)	none (no result: E-sel inducer, UUG fidelity, PglD inh)
CCc1nc(N)nc(N)c1-c1ccc(Cl)cc1	PGC1a acetyl inh 48.1
C[C@@H]1CN([C@H](C)CO)C(=O)c2cccc(NC(=O)c3nc4ccccc4s3)c2O[C@H]1CN(C)Cc1ccc(C(=O)Nc2ccccc2N)cc1	none
Nc1ccc2nc(Cc3ccccc3)[nH]c2c1	esBAF inh inconclusive (no result: C2C12 statin)
Nc1ccc(Cc2nc3c(ccc4ccccc43)[nH]2)cc1	esBAF inh 87.1 (no result: E-sel inducer)
Cc1ccc2nc(C(O)C(O)c3nc4ccc(C)cc4[nH]3)[nH]c2c1 (stereo not drawn)	esBAF inh 42.7 (no result: E-sel inducer)
Cc1ccc2nc(Cc3ccc(N)cc3)[nH]c2c1	esBAF inh 43.9 (no result: E-sel inducer)
S=c1nc(Cc2ccccc2)[nH]c2ccccc12	none (no result: E-sel inducer, PGC1a acetyl inh)
CC(C)CN(CC(C)C)c1nn[nH]n1	C2C12 statin 114.1 (no result: esBAF inh)
CCCCN(CCCC)c1nn[nH]n1	C2C12 statin 96.2 (no result: esBAF inh, E-sel inducer)
C[C@H]1CN([C@@H](C)CO)S(=O)(=O)c2ccc(-c3cccnc3)cc2O[C@@H]1CN(C)C(=O)CC1CC1	none
CCC(=O)N[C@H]1C=C[C@H](CC(=O)NCC2CCCCC2)O[C@@H]1CO	none
Cc1nc(-c2cccc(S(=O)(=O)N3CC(C)CC(C)C3)c2)cs1 (stereo not drawn)	none (no result: C2C12 statin, esBAF inh, E-sel inducer, UUG fidelity, PglD inh)
Cc1nc(-c2cccc(S(=O)(=O)N3CC(C)OC(C)C3)c2)cs1 (stereo not drawn)	C2C12 statin 115.1 (no result: E-sel inducer)
COc1cccc(C(=O)NCc2ccc(-c3nc4ccccc4s3)cc2)c1	esBAF inh 51.8 (no result: E-sel inducer, UUG fidelity, PglD inh)
COc1cc(C(=O)NCc2ccc(-c3nc4ccccc4s3)cc2)cc(OC)c1OC	none (no result: C2C12 statin, esBAF inh, PGC1a acetyl inh, UUG fidelity, PglD inh)
O=C(NCc1ccc(-c2nc3ccccc3s2)cc1)c1ccc(Br)o1	none (no result: C2C12 statin, esBAF inh, PGC1a acetyl inh, UUG fidelity, PglD inh)
COc1ccc(C(=O)NCc2ccc(-c3nc4ccccc4s3)cc2)cc1	esBAF inh 69.5 (no result: E-sel inducer)
CN(C)C(=O)[C@]1(Cc2ccccc2CN=[N+]=[N-])N=C(c2ccc(OCCCO)cc2)O[C@@H]1c1ccccc1	none (no result: C2C12 statin, esBAF inh, E-sel inducer, PGC1a acetyl inh)
CO[C@@H]1CN(C)C(=O)c2cc(NC(=O)Nc3ccccc3)ccc2OC[C@@H](C)N(CC2CC2)C[C@@H]1C	none
CCCNC(=O)Nc1ccc2c(c1)C(=O)N(C)C[C@@H](OC)[C@@H](C)CN(Cc1ccncc1)[C@@H](C)CO2	none (no result: UUG fidelity)
CC1=NN(c2ccccc2)C(=O)C1N=Nc1ccc(N)cc1 (stereo not drawn)	none (no result: E-sel inducer)
CC1=NN(c2ccccc2)C(=O)C1N=Nc1ccccc1 (stereo not drawn)	E-sel inducer 59.5 (no result: C2C12 statin, esBAF inh, PGC1a acetyl inh, UUG fidelity, PglD inh)
CC1=NN(c2ccccc2)C(=O)C1N=Nc1cccc(O)c1 (stereo not drawn)	esBAF inh 52.2 (no result: E-sel inducer)
O=C(C[C@H]1CC[C@H](NS(=O)(=O)c2ccccc2)[C@H](CO)O1)NCc1ccccc1F	none
Cc1cccc(-c2cc3nc4c(c(N5CCOCC5)n3n2)CCCC4)c1	none (no result: E-sel inducer)
Cc1cccc(-c2cc3nc4c(c(N5CCC6(CC5)OCCO6)n3n2)CCCC4)c1	esBAF inh 77.6 (no result: E-sel inducer)
OC1CCN(c2c3c(nc4cc(-c5ccc(F)cc5)nn24)CCC3)CC1	none (no result: E-sel inducer)
Fc1ccc(-c2cc3nc4c(c(N5CCOCC5)n3n2)CCCC4)cc1	esBAF inh 53.5 (no result: E-sel inducer, PGC1a acetyl inh)
Cc1cccc(OCCCSc2nc3ccccc3[nH]2)c1	none (no result: C2C12 statin, esBAF inh, E-sel inducer, PGC1a acetyl inh)
Cc1cccc(OCCSCc2nc3ccccc3[nH]2)c1	C2C12 statin 80.6 (no result: E-sel inducer)
O=C(C[n+]1cccc(Br)c1)c1ccccc1	none
O=C(C[n+]1cccc(Br)c1)c1ccc(-c2ccccc2)cc1	esBAF inh 44.4
Cc1ccc(S(=O)(=O)Nc2ccc3c(c2)C(=O)N([C@H](C)CO)C[C@@H](C)[C@@H](CN(C)C(=O)CCCN(C)C)OCCCC[C@@H](C)O3)cc1	none (no result: C2C12 statin, E-sel inducer)
COc1ccc(-c2nc(SC)n(S(=O)(=O)c3ccccc3)n2)cc1	esBAF inh 52.8 (no result: E-sel inducer)
CO[C@@H]1CN(C)C(=O)c2ccc(NC(=O)Cc3ccccc3)cc2OC[C@@H](C)N(CC2CC2)C[C@H]1C	none (no result: C2C12 statin, esBAF inh, UUG fidelity, PglD inh)
